Amino acid sequences for entries named in this document (tags omitted). A change or cut given only in a name is not applied to a line headed by its entry.
UniProt P41144: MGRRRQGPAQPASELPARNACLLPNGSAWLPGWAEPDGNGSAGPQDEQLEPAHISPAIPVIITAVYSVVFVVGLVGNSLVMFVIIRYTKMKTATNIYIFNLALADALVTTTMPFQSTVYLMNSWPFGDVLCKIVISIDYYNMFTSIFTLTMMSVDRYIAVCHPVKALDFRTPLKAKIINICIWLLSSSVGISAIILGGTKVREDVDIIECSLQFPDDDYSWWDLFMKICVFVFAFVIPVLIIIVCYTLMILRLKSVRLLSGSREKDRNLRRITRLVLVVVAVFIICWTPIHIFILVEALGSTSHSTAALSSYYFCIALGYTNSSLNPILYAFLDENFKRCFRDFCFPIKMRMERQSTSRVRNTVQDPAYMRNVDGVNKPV

According to ChEMBL document CHEMBL1152185, “Synthesis of a novel 6,14-epoxymorphinan derivative and its pharmacology” (Bioorg Med Chem Lett, 2008):

Target: Kappa-type opioid receptor (Cavia porcellus, UniProt P41144)

CN(C(=O)Cc1ccc(Cl)c(Cl)c1)C1CCCCC1N1CCCC1 (stereo unspecified)
IC50: 0.303 nM
